{
  "source": "paper PMC5594411",
  "about": "(Biomacromolecules, 2016)",
  "origin": "cited, not measured here",
  "data": [
    {"substance": "T-DM1", "values": [
      {"measurement": "DM1 molecules per antibody", "result": 3.5, "unit": "DM1 molecules/antibody"}
    ]}
  ]
}
